Consider one substance from patent US8198335B2, “Cosmetic material” (Parahermosa Co., Ltd., priority 2009, dated 2012).

A short description of this data set: Check for precipitation of crystal in 1:1 mixtures of oil solution and diethyl amino hydroxy benzoyl hexyl benzoate kept at 5° C. The class given is physicochemical. Further details: key: X: Evaluation results accompanied by an x in Table 2 indicate that crystal had precipitated at the applicable point in time. The following applies: 1:1 by mass with diethyl amino hydroxy benzoyl hexyl benzoate, checked after one week. The source says: Evaluation results accompanied by an x in Table 2 indicate that crystal had precipitated at the applicable point in time.

On to “Butylene glycol di (capryl/caprate) [Component 54]”, for which the “Evaluation results 1 week” value was “X”.
